One molecule from ChEMBL document CHEMBL3593234, “Lanostane Triterpenes from the Tibetan Medicinal Mushroom Ganoderma leucocontextum and Their Inhibitory Effects on HMG-CoA Reductase and α-Glucosidase” (J Nat Prod, 2015) can be followed below.

Amino acid sequences for entries named in this document (tags omitted). Residues count along the entry.
UniProt P23739, 1014-1841 limits assumed: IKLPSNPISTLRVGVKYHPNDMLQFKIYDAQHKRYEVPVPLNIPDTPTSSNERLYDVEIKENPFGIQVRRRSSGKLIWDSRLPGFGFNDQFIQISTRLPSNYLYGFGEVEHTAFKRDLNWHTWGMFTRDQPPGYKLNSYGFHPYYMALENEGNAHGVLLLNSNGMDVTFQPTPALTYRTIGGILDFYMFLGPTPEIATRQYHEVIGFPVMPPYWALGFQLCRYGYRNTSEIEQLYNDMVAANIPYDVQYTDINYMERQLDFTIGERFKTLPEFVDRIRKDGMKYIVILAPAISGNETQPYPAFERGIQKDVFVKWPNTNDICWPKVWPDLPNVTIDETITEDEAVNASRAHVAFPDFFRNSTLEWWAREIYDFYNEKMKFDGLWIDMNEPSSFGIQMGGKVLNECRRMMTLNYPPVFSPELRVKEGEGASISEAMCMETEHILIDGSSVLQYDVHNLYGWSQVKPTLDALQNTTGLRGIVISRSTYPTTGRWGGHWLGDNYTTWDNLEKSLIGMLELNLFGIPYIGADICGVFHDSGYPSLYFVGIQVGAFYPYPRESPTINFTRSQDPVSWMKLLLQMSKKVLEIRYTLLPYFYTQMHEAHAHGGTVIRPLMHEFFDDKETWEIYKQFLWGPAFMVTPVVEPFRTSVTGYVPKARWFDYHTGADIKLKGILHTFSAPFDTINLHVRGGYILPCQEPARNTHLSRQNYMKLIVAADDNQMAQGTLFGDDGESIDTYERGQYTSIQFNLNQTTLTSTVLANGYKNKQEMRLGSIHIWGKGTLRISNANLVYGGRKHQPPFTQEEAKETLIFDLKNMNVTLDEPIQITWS
UniProt P23739, 1-1013 limits assumed: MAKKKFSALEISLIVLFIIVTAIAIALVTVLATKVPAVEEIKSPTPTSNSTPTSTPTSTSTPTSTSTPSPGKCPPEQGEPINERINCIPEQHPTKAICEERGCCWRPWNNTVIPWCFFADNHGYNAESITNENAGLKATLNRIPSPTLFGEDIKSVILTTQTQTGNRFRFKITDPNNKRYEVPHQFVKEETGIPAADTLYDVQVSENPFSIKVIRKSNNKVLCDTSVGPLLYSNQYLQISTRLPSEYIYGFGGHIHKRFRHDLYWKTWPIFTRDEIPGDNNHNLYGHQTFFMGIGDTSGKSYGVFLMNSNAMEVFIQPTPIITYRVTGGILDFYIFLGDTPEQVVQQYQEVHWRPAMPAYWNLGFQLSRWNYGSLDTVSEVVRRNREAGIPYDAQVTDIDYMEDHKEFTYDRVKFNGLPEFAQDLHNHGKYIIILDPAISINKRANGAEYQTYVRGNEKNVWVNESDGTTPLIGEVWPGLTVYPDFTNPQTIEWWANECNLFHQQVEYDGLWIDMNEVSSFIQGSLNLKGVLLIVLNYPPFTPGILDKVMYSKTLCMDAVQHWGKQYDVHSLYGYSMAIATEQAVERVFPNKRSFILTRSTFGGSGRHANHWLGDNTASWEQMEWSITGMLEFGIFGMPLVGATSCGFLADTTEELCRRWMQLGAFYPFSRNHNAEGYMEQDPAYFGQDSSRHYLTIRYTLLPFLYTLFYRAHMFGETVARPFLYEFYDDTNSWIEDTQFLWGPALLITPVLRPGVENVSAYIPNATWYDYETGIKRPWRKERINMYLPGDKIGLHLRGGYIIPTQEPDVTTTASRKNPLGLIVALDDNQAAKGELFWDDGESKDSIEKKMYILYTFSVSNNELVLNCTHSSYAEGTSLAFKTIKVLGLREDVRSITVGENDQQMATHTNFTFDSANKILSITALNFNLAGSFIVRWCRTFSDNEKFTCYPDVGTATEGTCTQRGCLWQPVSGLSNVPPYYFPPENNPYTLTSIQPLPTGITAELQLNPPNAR

For this experiment, the target named is Sucrase-isomaltase, intestinal (Rattus norvegicus, UniProt P23739). As to the kind of experiment: Inhibition of sucrase in rat intestinal mucosa pre-incubated for 40 mins using sucrose substrate. Format: tissue-based. A digest of the protocol: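 Rat intestinal mucosa powder (1.0 g) was suspended in 3 mL 0.9% saline and sonicated at 4 °C (12 × 30 s), then spun at 10000g, 4 °C, 30 min; the supernatant served as enzyme. Compound in DMSO was mixed with substrate (maltose, sucrose or p-nitrophenyl-α-D-glucopyranoside) in 0.1 M phosphate buffer pH 6.9 and preincubated 40 min. Glucose was read by GOD kit at 550 nm, with blank-corrected percent inhibition.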

The structures appear in SMILES notation.

In the case of `C[C@H]1O[C@H](O[C@H]2[C@H](O)[C@@H](O)[C@@H](O[C@H]3[C@H](O)[C@@H](O)C(O)O[C@@H]3CO)O[C@@H]2CO)[C@H](O)[C@@H](O)[C@@H]1N[C@H]1C=C(CO)[C@@H](O)[C@H](O)[C@H]1O` (stereo partly specified) [ACARBOSE], the IC50 – broadly, the point on the concentration scale where inhibition reaches its midpoint – came to 20.2 µM.
